Test results reported in patent publication US5731160A, “Induction of antigen specific T-lymphocyte responses by stimulation with peptide loaded MHC class I molecules on antigen processing defective mammalian cell lines” (Rijksuniversiteit Leiden, priority 1992, dated 1998).

How the values were obtained:
Format in all cases: cell-based
Details in all cases: addition of human β2-microglobulin
[1] = test system: murine RMA-S cells; experiment: Peptide-loaded MHC Class I expression with added human β2-microglobulin, RMA-S
[2] = test system: human 174.CEM T2 cells; experiment: Peptide-loaded MHC Class I expression with added human β2-microglobulin, T2
[3] = test system: RMA-S cells and 174.CEM T2 cells; experiment: Primary CTL response induction with added human β2-microglobulin

Substance: human β2-microglobulin: human β2-microglobulin added during peptide loading
- Effect on peptide-loaded MHC Class I expression [1]: further enhances peptide-loaded MHC Class I expression
- Effect on peptide-loaded MHC Class I expression [2]: further enhances peptide-loaded MHC Class I expression
- Effect on subsequent primary CTL response induction [3]: enhanced
